For this test, the target named is IRAK4 (Homo sapiens, UniProt Q9NWZ3). The test is described as follows: LVL THP1 HTRF (THP1 Homogeneous Time Resolved Fluorescence). The following applies: for LVL THP1 HTRF YMIN: THP1 cells, 18 h incubation with compound; for EC50: read-out: LVL THP1 HTRF EC50, THP1 cells, 18 h incubation with compound. The protocol:
Cell culture media was prepared in a tissue culture hood in a sterile environment by adding 10% FBS and 1% Penicillin Streptomycin to 500 mL no phenol red RPMI 1640 media. The media was filtered through a Nalgene Bottle Top Filter and stored at 4° C.
For Homogenous Time Resolved Fluorescence (HTRF) assays, a Cisbio HTRF kit was used, which included: Lysis Buffer #1 4×, Blocking Reagent #3 100×, 20× Antibody 1 (Anti-IRAK4 d2), 20× Antibody 2 (Anti-IRAK4 k), and Detection Buffer.
The THP1 plates were prepared by the following method. For each dosing plate, a duplicate for CTG assay was prepared. Two THP-1 T-175 flasks could be used to plate one 384 well plate. The cells were collected from two T-175 flasks into 200 mL centrifuge tubes and spun down at 1200 rpm for 10 min. The supernatant was removed completely and cells were resuspended in 7.5 mL cell culture media. To 5 μL of the cell suspension was added 25 μL of media and 30 μL of Trypan Blue stain. The cells were counted using countess (automated cell counter, Thermo Fisher Scientific) twice and the viability and live cell count was recorded. The actual cell count was […] the live cell count. Based on the count, a cell suspension was prepared in colorless RPMI media for a final concentration of 7.5e6 cells/mL. Using Standard cassette multidrop combi, 20 μL of the 7.5e6 cells/mL cell stock was added to entire 384 well plate but for top half of column 1 (negative control) The multidrop combi was always primed to achieve a steady flow and washed after use with 20 mL de-ionized water followed by 20 mL alcohol. The cells were incubated in 5% CO2 incubator at 37° C.
Dosing was conducted using the following method. To dose assay plates and CTG plate was added 20 nL of compounds in DMSO using Echo (Beckman Coulter), and the plates were incubated at 37° C. for 18 h. The compound plates were spun at 1200 rpm for 1 min before dosing. The compound plate was sealed and properly stored during incubation.
After dosing, an HTRF assay was conducted using the following method. The treatment plates (IRAK4_HTRF) were centrifuged at 600 g for 10 min. Using CyBio Felix, Automated liquid handler (Analytikjena), 13 μL cell culture media was removed. To all columns, 7.5 μL lysis buffer was added, and an additional 7.5 μL of lysis buffer was added to column 1(top half, negative control). The plate was incubated on a shaker at room temperature for 2 h. The plate was spun down at 600 g for 5 min. Custom 20×IRAK4 Antibody obtained from CISBIO Anti-IRAK4-d2 (acceptor Ab) and Anti-IRAK4-K (donor Ab) were diluted to 1× antibody mix Using a multichannel repeater, 4 μL of 1× antibody mix was added to each wellThe plate was spun down at 600 g for 5 min and incubated in the dark at room temperature for 18 h The next day (after 18 hrs), HTRF assay plate was spun down at 600 g for 5 min and read at 665/615 nm using a Envision plate reader.
(Time-resolved FRET reads energy transfer from a long-lived donor to a nearby acceptor.)

By UniProt entry, the sequences of proteins in these tests, tags left out.
UniProt Q9NWZ3, whole entry: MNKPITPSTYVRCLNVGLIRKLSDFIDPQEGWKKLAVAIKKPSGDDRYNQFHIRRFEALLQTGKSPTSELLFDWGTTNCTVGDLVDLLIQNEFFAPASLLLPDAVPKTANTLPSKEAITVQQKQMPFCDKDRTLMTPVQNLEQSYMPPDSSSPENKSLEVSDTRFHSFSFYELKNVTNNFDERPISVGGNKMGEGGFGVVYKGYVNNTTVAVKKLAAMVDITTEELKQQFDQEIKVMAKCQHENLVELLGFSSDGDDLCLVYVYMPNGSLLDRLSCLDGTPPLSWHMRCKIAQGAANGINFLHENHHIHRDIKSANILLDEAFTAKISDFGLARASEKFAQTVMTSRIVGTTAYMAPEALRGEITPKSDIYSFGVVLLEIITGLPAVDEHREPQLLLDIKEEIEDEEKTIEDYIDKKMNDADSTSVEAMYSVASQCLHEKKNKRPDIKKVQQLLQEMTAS

Molecules are shown by their SMILES.

For orientation: EC50 means the concentration needed to bring the measured effect to its halfway point.

For `C[C@H](C#N)Nc1cc(-n2ncc3cc(C#N)c(C4CC4)nc32)ncc1C(=O)N[C@H]1CC[C@H](CCN2CCN(c3ccc(C4CCC(=O)NC4=O)cc3)CC2)CC1` (stereo partly drawn), the “LVL THP1 HTRF YMIN” value was 2.7% and the EC50 worked out at 32 nM.
Turning to `C[C@H](C#N)Nc1cc(-n2ncc3cc(C#N)c(N)nc32)ncc1C(=O)N[C@H]1CC[C@H](CCN2CCN(c3ccc(C4(C)CCC(=O)NC4=O)cn3)[C@@H](C)C2)CC1` (stereo partly drawn), the “LVL THP1 HTRF YMIN” value was 34.7% and the EC50 came out at 355 nM.
On the same counts, the results for `C[C@H](C#N)Nc1cc(-n2ncc3cc(C#N)c(N)nc32)ncc1-n1cc([C@H]2CC[C@H](CCN3CCN(c4ccc(N5CCC(=O)NC5=O)cc4)[C@H](C)C3)CC2)nn1` are −3.1% and 0.6 nM.
For the compound `C[C@H](C#N)Nc1cc(-n2ncc3cc(C#N)c(N4C[C@H]5C[C@@H]4CO5)nc32)ncc1-n1cc([C@H]2CC[C@H](CCN3CCC(c4ccc(C5(F)CCC(=O)NC5=O)cc4)CC3)CC2)nn1` (stereo partly drawn), the “LVL THP1 HTRF YMIN” value is on record as 1.6% and the EC50 worked out at 7.3 nM.
Take `CC(C)c1nc2c(cnn2-c2cc(N[C@H](C)C#N)c(C(=O)N[C@H]3CC[C@H](CCN4CCN(c5ccc(C6CCC(=O)NC6=O)cc5)CC4)CC3)cn2)cc1C#N` (stereo partly drawn): the “LVL THP1 HTRF YMIN” value is listed as less than 0.5% and the EC50 stood at 48 nM.
With `COc1cc(C2CCN(CC[C@H]3CC[C@H](c4cn(-c5cnc(-n6ncc7cc(C#N)cnc76)cc5N[C@H](C)C#N)nn4)CC3)CC2)ccc1N1CCC(=O)NC1=O`, the “LVL THP1 HTRF YMIN” value turned out to be 8.9% and the EC50 is 100 nM.

The record behind these values is patent US20240109881A1, “Heteroaryl Compounds as Ligand Directed Degraders of IRAK4” (Bristol-Myers Squibb Company, priority 2022, published 2024).
